# Laboratory results reported in paper PMC2637922, “Active-Site Inhibitors of mTOR Target Rapamycin-Resistant Outputs of mTORC1 and mTORC2” (PLoS Biology, 2009).
# System: Akt phosphorylation (S473, T308) in L6 myotubes
Compound,"phosphorylation of both Akt sites (S473, T308) (L6 myotubes, insulin, in-cell Western)","Akt phosphorylation at T308 (L6 myotubes, insulin, significantly higher doses required than for S473)",insulin-stimulated phosphorylation of Akt at S473 (serum-starved L6 myotubes)
COc1ccc2c(c1OC)N=C(NC(=O)c1cccnc1)N1CCN=C21 [PIK-90],inhibited the phosphorylation of both Akt sites equipotently,,
CC(C)n1nc(-c2cccc(C(=O)NC3=NCCS3)c2)c2c(N)ncnc21 [PP30],,loss of Akt phosphorylation at T308,inhibited
